Biological target: CYP77A4 (Arabidopsis thaliana, UniProt Q9LZ31)
Test: Kinetic studies of fatty acid metabolism by CYP77A4
Type: biochemical
Conditions: read-out: Km for metabolism by CYP77A4; 4.5 pmoles CYP77A4, 5 min; calculated with Enzyme Kinetics (Sigma Plot)

The chains behind the UniProt entries cited, without tags or fusion partners. Where a name states a change or a piece, a line headed by the entry shows the natural chain unless it says otherwise.
UniProt Q9LZ31: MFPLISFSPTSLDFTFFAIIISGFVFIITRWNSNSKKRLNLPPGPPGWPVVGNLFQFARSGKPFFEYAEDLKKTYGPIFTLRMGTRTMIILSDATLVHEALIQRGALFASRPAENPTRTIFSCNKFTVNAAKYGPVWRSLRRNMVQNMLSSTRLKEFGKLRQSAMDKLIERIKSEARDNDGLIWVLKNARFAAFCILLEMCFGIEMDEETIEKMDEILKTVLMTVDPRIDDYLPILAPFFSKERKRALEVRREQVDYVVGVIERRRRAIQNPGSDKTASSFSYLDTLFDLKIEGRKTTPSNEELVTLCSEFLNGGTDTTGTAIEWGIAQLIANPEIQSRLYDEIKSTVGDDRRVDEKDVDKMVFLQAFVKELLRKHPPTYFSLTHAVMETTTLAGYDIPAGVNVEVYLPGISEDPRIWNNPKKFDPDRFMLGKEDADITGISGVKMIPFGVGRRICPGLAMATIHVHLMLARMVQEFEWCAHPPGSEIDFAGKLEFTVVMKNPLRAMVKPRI

Structure (SMILES): CCCCCCCC/C=C\CCCCCCCC(=O)O [oleic acid]
- Km: 87 µM

— patent US20110283416A1, “METHODS FOR PLANT FIBER CHARACTERIZATION AND IDENTIFICATION” (LE CENTRE NATIONAL DE LA RECHERCHE SCIENTIFIQUE, priority 2008, published 2011)
